3 compounds from patent US9914740B2 (priority 2013, dated 2018) can be followed below.

By UniProt entry, the sequences of proteins in these tests, tags left out.
UniProt O75116, whole entry, species assumed: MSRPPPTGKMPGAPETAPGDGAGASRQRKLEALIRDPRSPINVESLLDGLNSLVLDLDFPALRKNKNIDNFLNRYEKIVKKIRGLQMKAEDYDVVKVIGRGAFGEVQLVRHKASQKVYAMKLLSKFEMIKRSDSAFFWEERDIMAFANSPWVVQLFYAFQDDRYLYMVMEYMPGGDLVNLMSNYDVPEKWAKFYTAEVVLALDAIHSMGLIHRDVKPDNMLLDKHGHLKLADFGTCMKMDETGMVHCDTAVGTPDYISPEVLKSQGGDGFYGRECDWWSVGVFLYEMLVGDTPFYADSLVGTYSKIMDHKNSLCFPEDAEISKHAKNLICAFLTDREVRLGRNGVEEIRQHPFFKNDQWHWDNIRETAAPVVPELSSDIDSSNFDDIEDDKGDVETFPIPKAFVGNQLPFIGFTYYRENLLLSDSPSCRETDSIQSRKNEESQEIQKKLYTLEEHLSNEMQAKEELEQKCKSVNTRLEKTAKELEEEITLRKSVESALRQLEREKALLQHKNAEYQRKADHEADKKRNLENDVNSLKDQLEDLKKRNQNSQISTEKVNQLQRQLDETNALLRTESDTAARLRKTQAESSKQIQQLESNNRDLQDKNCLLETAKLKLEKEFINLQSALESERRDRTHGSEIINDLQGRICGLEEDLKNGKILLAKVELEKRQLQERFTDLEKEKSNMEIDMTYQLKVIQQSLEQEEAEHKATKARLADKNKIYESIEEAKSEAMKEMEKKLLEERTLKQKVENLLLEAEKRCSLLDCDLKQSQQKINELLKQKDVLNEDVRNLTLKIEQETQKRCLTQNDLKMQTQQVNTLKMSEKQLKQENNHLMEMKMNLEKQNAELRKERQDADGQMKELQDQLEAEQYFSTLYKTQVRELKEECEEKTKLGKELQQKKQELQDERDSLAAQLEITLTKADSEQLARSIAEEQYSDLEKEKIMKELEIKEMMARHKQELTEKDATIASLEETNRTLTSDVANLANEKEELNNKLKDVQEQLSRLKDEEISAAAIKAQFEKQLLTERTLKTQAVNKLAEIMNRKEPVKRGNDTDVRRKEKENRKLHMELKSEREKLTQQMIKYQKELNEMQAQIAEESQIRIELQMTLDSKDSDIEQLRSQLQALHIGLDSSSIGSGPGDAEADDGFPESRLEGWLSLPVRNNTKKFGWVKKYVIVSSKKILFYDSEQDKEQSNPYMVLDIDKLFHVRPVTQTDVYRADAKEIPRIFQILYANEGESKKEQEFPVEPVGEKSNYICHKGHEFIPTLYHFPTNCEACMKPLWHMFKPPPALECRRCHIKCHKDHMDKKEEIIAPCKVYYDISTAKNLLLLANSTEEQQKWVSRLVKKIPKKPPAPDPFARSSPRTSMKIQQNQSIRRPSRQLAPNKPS

Each structure is given as a SMILES string.

The target in the test is ROCK2 (Homo sapiens (Human), UniProt O75116). The conditions noted are these: read-out: ROCK2 IC50.
Usually IC50 stands for the concentration that gives 50% inhibition. In the case of `CC(C)(C)OC(=O)N1CCn2c(-c3cccc(CNC(=O)c4ccc5c(c4)OCc4cnccc4-5)c3)cnc2C1` [IV-16, tert-butyl 3-(3-((5H-chromeno[3,4-c]pyridine-8-carboxamido)methyl)phenyl)-5,6-dihydroimidazo [1,2-a]pyrazine-7(8H)-carboxylate], the IC50 worked out at 371 nM.

Consider `C[C@@H](NC(=O)c1ccc2c(c1)c(=O)[nH]c1cnccc12)c1ccccc1` [XIII-5, 6-oxo-N-[(1R)-1-phenylethyl]-5H,6H-benzo[c] 1,7-naphthyridine-8-carboxamide], for which the IC50 amounted to 792 nM.

Consider `Cn1c(=O)c2cc(C(=O)NCc3ccccc3Cl)ccc2c2ccncc21` [XIII-7, N-[(2-chloro-phenyl)methyl]-5-methyl-6-oxo-5H,6H-benzo[c] 1,7-naphthyridine-8-carboxamide], for which the half-inhibitory concentration (IC50) is 583 nM.
